Assay results as given in patent publication US7064204B2, “Pharmaceutically active compounds having a tricyclic pyrazolotriazolopyrimidine ring structure and methods of use” (King Pharmacueticals Reserch and Development, Inc., priority 2002, dated 2006).

Chains of the proteins cited; added tags and fusions are not shown.
UniProt P30542, whole entry: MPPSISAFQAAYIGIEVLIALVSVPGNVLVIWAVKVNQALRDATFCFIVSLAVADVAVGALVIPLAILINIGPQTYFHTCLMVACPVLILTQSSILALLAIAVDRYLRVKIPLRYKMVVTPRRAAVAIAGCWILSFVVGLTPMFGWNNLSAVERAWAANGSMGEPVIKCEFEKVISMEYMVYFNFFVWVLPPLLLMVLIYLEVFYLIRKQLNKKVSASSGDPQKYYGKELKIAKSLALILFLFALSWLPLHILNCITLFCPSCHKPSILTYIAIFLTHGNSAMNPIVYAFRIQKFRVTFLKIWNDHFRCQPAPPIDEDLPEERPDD

Key:
[1] = target: T1, human A2A adenosine receptors (Homo sapiens, UniProt P29274); experiment: Displacement of [3H]SCH58261 binding at human A2A adenosine receptors expressed in CHO cells
T1 construct: expressed in transfected cells; host or cells: CHO cells

[2] = target: T2, human A1 adenosine receptors (Homo sapiens, UniProt P30542); experiment: Displacement of [3H]DPCPX binding at human A1 adenosine receptors expressed in CHO cells; conditions: Table 2, footnote b: [3H]DPCPX
T2 construct: expressed in transfected cells; host or cells: CHO cells

Row | Ki ([1]; Table 2, footnote b: [3H]SCH58261, human A2A) | Ki [2] | Ki ([1]; Table 3: [3H]SCH58261, human A2A) | Structure (SMILES)
1 | > 1000 nM | > 1000 nM |  | Nc1nc2c(cnn2CCc2ccccc2)c2nc(-c3ccc(Cl)cc3)nn12 [Compound 5b, 2-(4-Chloro-phenyl)-7-phenethyl-7H-pyrazolo[4,3-e][1,2,4]triazolo[1,5-c]pyrimidin-5-ylamine]
2 |  |  | 10 nM | CCNc1c2c(nc(N)n3nc(-c4ccco4)nc23)nn1C [Compound 53, N9-Ethyl-2-furan-2-yl-8-methyl-8H-pyrazolo[4,3-e][1,2,4]triazolo[1,5-c]pyrimidine-5,9-diamine hydrochloride salt]

Counter-ions that a name gives are not always drawn.
